# Target: Stromelysin-1 (Homo sapiens, UniProt P08254)
# Chains of the proteins cited; added tags and fusions are not shown. Lines headed by an entry give the natural chain unless they say otherwise; changes in a name come on top.
# UniProt P08254: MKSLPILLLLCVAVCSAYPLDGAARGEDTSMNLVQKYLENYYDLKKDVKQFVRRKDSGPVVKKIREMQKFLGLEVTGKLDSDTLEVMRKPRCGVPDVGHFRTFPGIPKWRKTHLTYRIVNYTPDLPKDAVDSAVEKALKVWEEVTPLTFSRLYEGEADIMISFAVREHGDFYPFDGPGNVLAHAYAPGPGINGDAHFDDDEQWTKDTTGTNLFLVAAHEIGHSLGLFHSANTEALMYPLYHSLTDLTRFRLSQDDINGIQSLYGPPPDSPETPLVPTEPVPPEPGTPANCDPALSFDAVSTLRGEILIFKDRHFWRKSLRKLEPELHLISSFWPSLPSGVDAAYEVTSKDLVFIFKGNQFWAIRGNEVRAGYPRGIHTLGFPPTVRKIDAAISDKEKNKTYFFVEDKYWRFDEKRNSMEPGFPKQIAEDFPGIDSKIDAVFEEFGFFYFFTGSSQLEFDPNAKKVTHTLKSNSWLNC
# Experiment: Inhibition activity against recombinant human stromelysin (Matrix metalloprotease-3)
row,Compound,Ki [µM]
1,CC(C)CN(CC(=O)NO)S(=O)(=O)c1ccc(C(F)(F)F)cc1,5.35
2,CC(C)CN(CC(=O)NO)S(=O)(=O)c1ccccc1,1.76
3,Cc1ccc(S(=O)(=O)N(CC(=O)NO)CC(C)C)cc1,3.27
4,COc1ccc(S(=O)(=O)N(Cc2ccccc2)[C@H](CCCCNC(=O)OCc2ccccc2)C(=O)NO)cc1,0.07
5,COc1ccc(S(=O)(=O)N(Cc2cccnc2)[C@H](CC(C)C)C(=O)NO)cc1,0.046
6,COc1ccc(S(=O)(=O)N(CC(=O)NO)Cc2cc(OC)c(OC)c(OC)c2)cc1,0.151
7,COc1ccc(S(=O)(=O)N(CC(=O)NO)Cc2cccnc2)cc1,0.113
8,CC(C)CN(CC(=O)NO)S(=O)(=O)c1ccc(OC(C)C)cc1,0.336
9,COc1ccc(S(=O)(=O)N(CC(=O)NO)Cc2ccncc2)cc1,0.192
10,CC(C)CN(CC(=O)NO)S(=O)(=O)c1ccc(N)cc1,5
11,COc1ccc(S(=O)(=O)N(Cc2cccnc2)[C@H](CC(C)(C)C)C(=O)NO)cc1,0.042
12,COc1ccc(S(=O)(=O)N(CC(=O)NO)C2CCCCC2)cc1,1.26
13,CCCCCCOc1ccc(S(=O)(=O)N(CC(=O)NO)CC(C)C)cc1,0.063
14,CC(C)CN(CC(=O)NO)S(=O)(=O)c1ccc(Cl)cc1,0.943
15,COc1ccc(S(=O)(=O)N(Cc2ccccc2)[C@H](CC(C)(C)C)C(=O)NO)cc1,0.028
16,CC(C)CCOc1ccc(S(=O)(=O)N(CC(=O)NO)CC(C)C)cc1,0.078
17,CC(C)CN(CC(=O)NO)S(=O)(=O)c1ccc(F)cc1,3.27
18,COc1ccc(S(=O)(=O)N(Cc2ccccc2)[C@@H](C(=O)NO)c2ccccc2)cc1,0.104
19,CCOCCOc1ccc(S(=O)(=O)N(CC(=O)NO)CC(C)C)cc1,1.13
20,COc1ccc(S(=O)(=O)N(CCN2CCCCC2)CC(=O)NO)cc1,1.13
21,CCCCOc1ccc(S(=O)(=O)N(CC(=O)NO)CC(C)C)cc1,0.058
22,COc1ccc(S(=O)(=O)N(Cc2ccccc2)[C@H](CCSC)C(=O)NO)cc1,0.031
23,COc1ccc(S(=O)(=O)N(CC(=O)NO)CC(F)(F)F)cc1,0.305
24,CCC(C)N(CC(=O)NO)S(=O)(=O)c1ccc(OC)cc1 (centres undefined),1.82
25,COc1ccc(S(=O)(=O)N(CCCc2ccccc2)CC(=O)NO)cc1,0.125
26,CCC(C)[C@H](C(=O)NO)N(Cc1ccccc1)S(=O)(=O)c1ccc(OC)cc1 (some centres undefined),0.039
27,CC(C)CN(CC(=O)NO)S(=O)(=O)c1ccc(OCC2CCCCC2)cc1,0.061

# Further compounds by falling Ki, results first:
row,Ki [µM],Compound
1,2.5,COc1ccc(S(=O)(=O)N(CC(=O)NO)C(C)(C)C)cc1
2,0.7,COc1ccc(S(=O)(=O)N(Cc2ccccc2)C(C(=O)NO)C(C)(C)C)cc1 (centres undefined)
3,0.236,COc1ccc(S(=O)(=O)N(CCN2CCOCC2)CC(=O)NO)cc1
4,0.107,COc1ccc(S(=O)(=O)N(CC(=O)NO)Cc2ccc(-c3ccccc3)cc2)cc1
5,0.1,COc1ccc(S(=O)(=O)N(CCCCc2ccccc2)CC(=O)NO)cc1
6,0.094,COc1ccc(S(=O)(=O)N(CC(=O)NO)Cc2ccc(Cl)cc2)cc1
7,0.09,COc1ccc(S(=O)(=O)N(CC(=O)NO)Cc2ccccn2)cc1
8,0.085,COc1ccc(S(=O)(=O)N(Cc2ccccc2)[C@H](CCS(C)(=O)=O)C(=O)NO)cc1
9,0.081,COc1ccc(S(=O)(=O)N(Cc2cccnc2)[C@H](CCCCN(C)C)C(=O)NO)cc1
10,0.07,COc1ccc(S(=O)(=O)N(CC(=O)NO)Cc2cccc(OC)c2)cc1
11,0.069,COc1ccc(S(=O)(=O)N(Cc2ccccc2)[C@H](CCCCN(C)C)C(=O)NO)cc1
12,0.066,COc1ccc(S(=O)(=O)N(CCc2ccccc2)CC(=O)NO)cc1
13,0.065,COc1ccc(S(=O)(=O)N(Cc2ccccc2)C(Cc2ccc(O)cc2)C(=O)NO)cc1 (centres undefined)
14,0.05,COc1ccc(S(=O)(=O)N(Cc2ccccc2)C(CCN2CCOCC2)C(=O)NO)cc1 (centres undefined)
15,0.048,COc1ccc(S(=O)(=O)N(Cc2ccccc2)[C@H](COC(C)(C)C)C(=O)NO)cc1
16,0.044,COc1ccc(S(=O)(=O)N(Cc2ccccc2)[C@H](CC2CCCCC2)C(=O)NO)cc1
17,0.038,COc1ccc(S(=O)(=O)N(CCC2CCCCC2)CC(=O)NO)cc1

# From ChEMBL document CHEMBL1130107, “Discovery of CGS 27023A, a non-peptidic, potent, and orally active stromelysin inhibitor that blocks cartilage degradation in rabbits” (J Med Chem, 1997)
